Source: BindingDB's records for 21215642

Protein sequences, listed by entry. Tags and fused reporters are not part of them. Residues count along the entry.
UniProt P22303, 32-614 limits assumed: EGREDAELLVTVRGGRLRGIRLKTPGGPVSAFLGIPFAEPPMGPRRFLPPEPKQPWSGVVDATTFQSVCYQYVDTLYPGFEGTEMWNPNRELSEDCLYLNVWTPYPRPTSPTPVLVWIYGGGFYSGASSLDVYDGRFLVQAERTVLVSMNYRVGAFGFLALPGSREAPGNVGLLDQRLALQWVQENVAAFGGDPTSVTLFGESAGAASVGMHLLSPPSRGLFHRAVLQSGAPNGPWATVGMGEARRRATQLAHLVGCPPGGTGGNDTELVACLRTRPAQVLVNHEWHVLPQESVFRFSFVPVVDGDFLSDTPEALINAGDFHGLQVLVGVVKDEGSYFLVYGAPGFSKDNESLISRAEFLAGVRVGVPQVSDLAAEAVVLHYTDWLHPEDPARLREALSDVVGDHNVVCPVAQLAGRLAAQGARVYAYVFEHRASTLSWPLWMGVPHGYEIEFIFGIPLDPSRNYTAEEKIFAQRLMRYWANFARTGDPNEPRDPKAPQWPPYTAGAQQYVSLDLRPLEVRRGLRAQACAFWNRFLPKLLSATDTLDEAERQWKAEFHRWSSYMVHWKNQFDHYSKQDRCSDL

biological target: Acetylcholinesterase (Homo sapiens, UniProt P22303); assay: Inhibition of human recombinant AChE by modified Ellman's method

**Q.** Which IC50 does the source give for `N=C(NO)c1cc[n+](CCC[n+]2ccc(CN=O)cc2)cc1` here?
**A.** Its IC50 is 291 µM.

**Q.** With `O=NCc1cc[n+](CCC[n+]2ccc(-c3ccccc3)cc2)cc1` as the compound, how does the IC50 read?
**A.** Its IC50 is 112 µM.

**Q.** Which IC50 does the source give for `CC(=O)c1cc[n+](CCC[n+]2ccc(CN=O)cc2)cc1` here?
**A.** Its IC50 is 105 µM.
